# Data reported in PubChem BioAssay AID2435 (The Scripps Research Institute Molecular Screening Center, 2010).
# Chains of the proteins cited; added tags and fusions are not shown.
# UniProt P30559, whole entry: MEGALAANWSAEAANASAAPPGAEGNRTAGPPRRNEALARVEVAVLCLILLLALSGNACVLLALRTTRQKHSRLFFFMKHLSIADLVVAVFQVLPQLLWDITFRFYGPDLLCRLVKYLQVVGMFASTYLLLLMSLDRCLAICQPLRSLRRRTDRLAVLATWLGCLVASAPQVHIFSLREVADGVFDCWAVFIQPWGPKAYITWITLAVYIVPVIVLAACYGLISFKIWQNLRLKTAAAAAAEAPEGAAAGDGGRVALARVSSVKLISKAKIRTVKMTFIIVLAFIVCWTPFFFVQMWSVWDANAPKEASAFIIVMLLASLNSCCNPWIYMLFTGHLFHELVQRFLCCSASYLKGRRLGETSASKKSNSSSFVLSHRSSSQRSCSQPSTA
# The entries are a selection whose mix differs from that of the whole data set. Calls of active or inactive are those of the source.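 Rule for the calls: active = activation above the mean of all tested compounds plus 3 SD, cutoff set per screening run (cut at about 20% in these data); inactive = the rest.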
# Target: Oxytocin receptor (Homo sapiens) (UniProt P30559)
# Assay: oxytocin receptor activation by calcium flux – fluorescence, CHO-OTR cells, Fluo-8 calcium, primary screen (AID 2435);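 note: peak over basal fluorescence ratio from a 100 s FLIPR kinetic read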
# Settings: Fluo-8 calcium fluorescence, at 3 µM, active compounds read high, normalized: DMSO 0%, oxytocin 100%
row,SMILES,activation
1,O=C(NCC1(N2CCCCC2)CCCCC1)c1ccc(OC(F)F)cc1,inactive: 0.54%
2,CCN1CCC(Nc2ccc(Cl)cc2)CC1,inactive: 1.2%
3,N#CC1(Nc2ccccc2)CCN(CCc2ccccc2)CC1,inactive: 0.48%
4,O=C(NCC1(N2CCCCC2)CCCCC1)c1cccc([N+](=O)[O-])c1,inactive: -0.02%
5,O=C(NCC1(N2CCCCC2)CCCCC1)c1cccc(C(F)(F)F)c1,inactive: 1.09%
6,COc1cc(C(=O)NCC2(N3CCCCC3)CCCCC2)ccc1OC(F)F,inactive: 0.7%
7,O=C(NCC1(N2CCOCC2)CCCCC1)c1cc(=O)[nH]c2ccccc12,inactive: 0.01%
8,CN1CCN(CCOC(=O)C(O)(c2ccccc2)c2ccccc2)CC1,inactive: -0.94%
9,COc1ccc(NC2CCN(C(=O)OC(C)(C)C)CC2)cc1,inactive: 0.17%
10,CC(C)c1ccc(NC2CCN(C(=O)OC(C)(C)C)CC2)cc1,inactive: -0.74%
11,COc1ccc(CN(CCCl)CCCl)cc1Cl,inactive: 1.19%
12,CN(C)c1cccc(C(=O)NCC2(N3CCCCC3)CCCCC2)c1,inactive: 0.33%
13,COc1cc(OC)c(C(=O)NCC2(N(C)C)CCCCC2)cc1OC,inactive: 1.86%
14,O=C(NCC1(N2CCOCC2)CCCCC1)c1cc(F)c(F)cc1Cl,inactive: -1.78%
15,CN1CCC(Nc2cccc(F)c2)CC1,inactive: 0.42%
16,O=C(NCC1(N2CCCCC2)CCCCC1)c1cncc(Br)c1,inactive: -0.14%
17,COc1ccc(C(=O)NCC2(N3CCCCC3)CCCCC2)cc1,inactive: 1.22%
18,CC(C)(C)OC(=O)N1CCC(N(C(=O)c2ccccc2)c2ccc(F)cc2)CC1,inactive: -1.06%
19,COc1ccc(C(=O)NCC2(N3CCCCC3)CCCCC2)c(OC)c1OC,inactive: -0.11%
20,O=C(NCC1(N2CCCCC2)CCCCC1)c1ccc(=O)[nH]c1,inactive: 0.12%
21,O=C(NCC1(N2CCCCC2)CCCCC1)c1cccs1,inactive: 0.12%

row,SMILES,activation
1,CSc1ccccc1C(=O)NCC1(N2CCCCC2)CCCCC1,inactive: -0.3%
2,O=C(NCC1(N2CCCCC2)CCCCC1)c1ccc(Cl)nc1,inactive: -1.07%
3,Cc1cc(C)cc(N(C(=O)c2ccccc2)C2CCN(C(=O)OC(C)(C)C)CC2)c1,inactive: -2.36%
4,O=C(NCC1(N2CCOCC2)CCCCC1)c1cc2ccccc2o1,inactive: -0.62%
5,O=C(NCC1(N2CCCCC2)CCCCC1)c1ccc(Cl)s1,inactive: 1.13%
6,N#CC1(Nc2ccccc2)CCN(Cc2ccccc2)CC1,inactive: 1.05%
7,O=C(OC1CN2CCC1CC2)C1c2ccccc2Oc2ccccc21 (stereo not drawn),inactive: 0.29%
8,COc1ccc(Cl)cc1C(=O)NCC1(N2CCOCC2)CCCCC1,inactive: -2.01%
9,CCOC(=O)N1CCC(Nc2ccc(OC)cc2)CC1,inactive: -0.52%
10,CCOc1ccc(C)cc1CN(CCCl)CCCl,inactive: -1.1%
11,O=C(NCC1(N2CCCCC2)CCCCC1)c1ccc(F)cc1,inactive: -1.22%
12,COc1ccc(NC2CCN(CCc3ccccc3)CC2)c(OC)c1,inactive: 0.8%
13,CCOC(=O)N1CCC(Nc2cccc(C)c2)CC1,inactive: -1.1%
14,Cc1ccc(OCC(C)C)c(CN(CCCl)CCCl)c1,inactive: -1.46%
15,COc1cc(OC)cc(C(=O)NCC2(N3CCCCC3)CCCCC2)c1,inactive: -0.42%
16,Cc1ccc(C(=O)NCC2(N3CCCCC3)CCCCC2)o1,inactive: -0.72%
17,Fc1ccccc1NC1CCN(Cc2ccccc2)CC1,inactive: -1.05%
18,CCN1CCC(Nc2cccc(F)c2)CC1,inactive: -0.41%
19,O=C(NCC1(N2CCCCC2)CCCCC1)c1ccco1,inactive: -0.78%
20,CN(C)c1ccc(C(=O)NCC2(N3CCCCC3)CCCCC2)cc1,inactive: 1.02%
21,CCOc1ncccc1C(=O)NCC1(N2CCOCC2)CCCCC1,inactive: -1.62%

row,SMILES,activation
1,CN1CCC(Nc2ccc(F)c(Cl)c2)CC1,inactive: 0.33%
2,CC(C)(C)OC(=O)N1CCC(Nc2ccccc2)CC1,inactive: -0.36%
3,O=C(O)C1(Nc2ccccc2)CCN(Cc2ccccc2)CC1,inactive: -0.21%
4,CCCOc1ccc(C(=O)NCC2(N(C)C)CCCCC2)cc1,inactive: 0.15%
5,COc1cc(OC)cc(C(=O)NCC2(N3CCOCC3)CCCCC2)c1,inactive: 0.21%
6,COc1cccc(C(=O)N(c2cc(C)cc(C)c2)C2CCN(C(=O)OC(C)(C)C)CC2)c1,inactive: -2.33%
7,CCC(CO)(C(=O)OC1CN2CCC1CC2)c1ccccc1 (stereo not drawn),inactive: 0.74%
8,CN1CCC(Nc2ccc(Cl)cc2)CC1,inactive: 0.54%
9,CCCOc1ccc(C)cc1CN(CCCl)CCCl,inactive: -2.01%
10,COc1cc(C(=O)NCC2(N3CCOCC3)CCCCC2)cc(OC)c1C,inactive: -1.53%
11,O=C(NCC1(N2CCOCC2)CCCCC1)c1cc(Br)ccc1Cl,inactive: -2.33%
12,COc1ccc(C(=O)NCC2(N3CCOCC3)CCCCC2)cc1OC,inactive: -0.15%
13,CCOC(=O)N1CCC(Nc2ccc(C)cc2)CC1,inactive: -2.07%
14,N/C(=N\O)c1c(N)no[n+]1[O-],inactive: -0.79%
15,CCc1cc(C(=O)NCC2(N3CCCCC3)CCCCC2)sc1C,inactive: -1.01%
16,O=C(OC1CN2CCC1CC2)C1c2ccccc2C=Cc2ccccc21 (stereo not drawn),inactive: 5.2%
17,N#Cc1ccc(C(=O)NCC2(N3CCCCC3)CCCCC2)cc1,inactive: -0.55%
18,CC(C)(C)OC(=O)N1CCC(N(C(=O)c2ccccc2)c2ccc(Cl)cc2)CC1,inactive: -1.76%
19,CN(C)C1(CNC(=O)c2cccc(C#N)c2)CCCCC1,inactive: 0.22%
20,c1ccc(CN2CCC(Nc3ccccc3)CC2)cc1,inactive: -0.19%
21,CCCN1CCC(Nc2cc(OC)cc(OC)c2)CC1,inactive: -0.3%
